Drawing on PubChem BioAssay AID595 (National Center for Advancing Translational Sciences (NCATS), 2007), this text covers activity change, negative = inhibition and Potency for 38 compounds.

Structures are written as SMILES. Only a part is listed here, and it is no random draw. Records with an inconclusive call do not appear. Where a call stands in place of a potency, no number is given. The source made the active and inactive calls. Calls come from the whole dose curve; as a rule, active = well fitted curve in either direction with a large enough effect; inconclusive = small, poorly fitted or top-dose-only effect, or another doubt; inactive = flat fitted curve, though single readings scatter.
Potency is the fitted concentration of half-maximal effect.

The test system of the experiment is Hsp90 C-terminal peptide / TPR2A (Hop) interaction, human. In words: qHTS Assay for Disrupters of an Hsp90 Co-Chaperone Interaction. The following applies: AlphaScreen TPR2A-His6 binding biotin-Hsp90 C-terminal peptide; series mostly up to 57 µM. The text has this:
NIH Chemical Genomics Center [NCGC]
NIH Molecular Libraries Screening Centers Network [MLSCN]
Hsp90 (heat shock protein 90) is the essential molecular chaperone and it accounts for 1-2% of all cytosolic proteins and is critical for the activity of diverse cellular proteins that are involved in a variety of cellular processes, including development, cell cycle, and steroid hormone signaling. Its client proteins include signaling kinases such as IGF1R, Akt, v-Src, Raf-1; regulators of cell survival such as Bcr-Abl; and transcription factors such as mutated p53, estrogen and progesterone receptors. Hsp90 has emerged as an important target for cancer treatment due to its essential role in maintaining transformation and regulating the function of oncogenic signaling proteins.
The in vivo function of Hsp90 is regulated by the binding and hydrolysis of ATP at its N-terminal. Geldanamycin binds to ATP site and inhibit Hsp90 function. Geldanamycin and its analogues are under clinical trials in cancer patients.
This domain contains the binding site for tetratricopeptide repeat (TPR) domains on HOP (Hsp Organizing Protein). TPR is a structural motif used by a significant number of cochaperones by which the in vivo function of Hsp90 is regulated. TPR2A on HOP binds specifically to MEEVD motif of the C-terminal of Hsp90.
A homogeneous AlphaScreen is developed to assess the interaction between TPR2A and MEEVD motif of the C-terminal of Hsp90 by using the isolated TPR2A domain and a synthesized 20mer Hsp90 C terminal peptide. AlphaScreen is two bead-based proximity-dependent chemical energy transfer luminescent assay platform. TPR2A-His-6 and biotinylated Hsp90 C terminal peptide will bring streptavidin donor beads and nickel chelate acceptor beads to a proximity range (less than 200 nm), and subsequently lead a chemical luminescent reaction upon exciting donor beads with 680 nm laser. Inhibition of TPR2A and MEEVD motif interaction by small molecules could attenuate or abolish this chemical luminescent reaction.
Counter screening: Biotinylated-His-6 (PerkinElmer) can be utilized as a counter screen, as it serves as a linker to bring streptavidin beads and nickel chelate beads together. The counter screen can exclude alpha screen platform false positives due to small molecules being metal chelators, biotin analogues and imidazole analogues, or due to interfering with oxygen release from donor beads. Such an assay should be utilized to qualify any activity observed in this screen.
NCGC Assay Protocol Summary:
The assay was performed on 1536-well white plate (untreated solid bottom). Liquids were dispensed by 1536-well plate washer (Kalypsys, San Diego, CA). Plates were read on EnVision (PerkinElmer, Boston, MA).TPR2A-His6 was produced using a bacteria expression system and purified using a well developed method (Ghosh et al., 2000). Hsp90 C terminal 20-mer peptide with or without an N-terminal biotin group are synthesized using automated solid phase synthesis by the Yale Keck facility. The composition of assay buffer was (in mM) 25 HEPES, 100 KCl, 2 MgCl2 and 2 DTT; 0.1% BSA and 0.01% Tween-20. TPR2A-His6 binding to biotin-Hsp90 will bring streptavidin donor beads and nickel chelate acceptor beads (PerkinElmer) together and can be measured by Alpha reading by EnVision (PerkinElmer). Free Hsp90 blocks biotin-Hsp90 binding to TPR2 and serves as a positive control in the current asssay.
The assay was performed at room temperature. All compounds were screened as titrations from […] to 46 uM final concentration. The assay was performed in 1536-well format plates (untreated white solid bottom, Corning Inc.) as follows:
Sequence,Parameter,Value,Description
1,Reagent,3 uL TPR2A-His6,Final concentration was 5nM
2,Compound,23 nL,Final titration was from 0.7 nM to 46 uM
3,Time,15 minutes,Room temperature
4,Reagent,1 uL biotin-Hsp90,With and without free Hsp90. Final concentration was 10 nM for biotin-Hsp90 and 10uM for free Hsp90.
5,Time,1 hour,Room temperature
[…]
As to `[N-]=[N+]=NCC(O)CN=[N+]=[N-]` (stereo not drawn), the activity change, negative = inhibition was inactive: -3.58% [at 11 µM].

Regarding `C(Cc1nn[nH]n1)c1nn[nH]n1`, the activity change, negative = inhibition was inactive: -1.98% [at 11 µM].

Turning to `CN(C(=O)Cc1ccc(Cl)c(Cl)c1)[C@H]1CCCC[C@@H]1N1CCCC1`, the activity change, negative = inhibition result was “inactive”.

In the case of `Cc1c2non([O-])c-2c(C)[n+](=O)[n+]1[O-]`, the activity change, negative = inhibition entry is “inactive”.

For `NCC[C@@H](N)CSP(=O)(O)O`, the activity change, negative = inhibition was inactive: -0.035% [at 11 µM].

As to `O=[N+]([O-])c1ccc(C[As](=O)(O)O)cc1`, the activity change, negative = inhibition is inactive: -0.397% [at 11 µM].

Take `O=C(CO)Nc1ccc([As](=O)(O)O)cc1`: the activity change, negative = inhibition was inactive: -2.86% [at 11 µM].

`CCc1nc2c(n1)c1c(non1O)c1c2no[n+]1[O-]`: the Potency was active: 7.94 µM.

On to `CN(C(=O)Cc1ccccc1)[C@@H]1CC[C@@]2(CCCO2)C[C@H]1N1CCCC1`, for which the activity change, negative = inhibition result is “inactive”.

As to `O=C(OC1CN2CCC1CC2)c1cccc(Cl)c1` (stereo not drawn), the activity change, negative = inhibition entry is “inactive”.

As for `Cc1cc([N+](=O)[O-])cc([N+](=O)[O-])c1O`, the activity change, negative = inhibition result was “inactive”.

For the compound `[N-]=[N+]=Nc1ccc([As](=O)(O)O)cc1`, the activity change, negative = inhibition is inactive: -0.386% [at 11 µM].

Turning to `CN1CCC[C@H](OC(=O)C(c2ccccc2)c2ccccc2)C1`, the activity change, negative = inhibition was inactive: 2.81% [at 11 µM].

Turning to `C[C@@H](O)COc1ccc([As](=O)(O)O)cc1N`, the activity change, negative = inhibition was inactive: -4.14% [at 11 µM].

On to `O=P(Nc1nccs1)(c1ccccc1)c1ccccc1`, for which the activity change, negative = inhibition entry was “inactive”.

`c1nnnn1CCn1cnnn1`: the activity change, negative = inhibition result is “inactive”.

In the case of `O=P1(Nc2nc3ccc(Cl)cc3s2)COc2ccccc2O1` (stereo not drawn), the activity change, negative = inhibition result is “inactive”.

For `COC(=O)c1cc2c(s1)N=C(c1ccccc1)N(C)P2(=O)N1CCOCC1` (stereo not drawn), the activity change, negative = inhibition result is “inactive”.

As for `NC(=O)Nc1ccc([As](=O)(O)O)cc1`, the activity change, negative = inhibition entry was “inactive”.

With `CCOP1(=S)c2c(C)nn(CCC#N)c2N=C(c2ccc(F)cc2)N1C` (stereo not drawn), the activity change, negative = inhibition entry is “inactive”.

For the compound `O=P(Nc1nccs1)(c1ccccc1)c1nc2ccccc2s1` (stereo not drawn), the activity change, negative = inhibition entry is “inactive”.

`CCOP1(=S)c2c(C)nn(CCC#N)c2N=C(c2ccccc2F)N1C` (stereo not drawn): the activity change, negative = inhibition entry was “inactive”.

Take `O=[As](O)(O)c1ccc([As](=O)(O)O)cc1`: the activity change, negative = inhibition was inactive: -1.79% [at 11 µM].

As to `NS(=O)(=O)Cc1ccc([As](=O)(O)O)cc1`, the activity change, negative = inhibition was inactive: -0.383% [at 11 µM].

With `O=C(CC(=O)c1ccccc1)O[C@H]1CN2CCC1CC2`, the activity change, negative = inhibition was inactive: 0.132% [at 11 µM].

In the case of `CN(C(=O)Cc1ccc(Cl)c(Cl)c1)[C@@H]1CC[C@@]2(CCCO2)C[C@H]1N1CCCC1`, the activity change, negative = inhibition entry was “inactive”.

Regarding `CN(C(=O)Cc1ccc(Cl)c(Cl)c1)[C@@H]1CCCC[C@H]1N1CCCC1`, the activity change, negative = inhibition result is “inactive”.

As to `CN(CCCl)Cc1cc(Cl)c(NC2=NCCN2)c(Cl)c1`, the activity change, negative = inhibition entry was “inactive”.

Regarding `O=P1(Nc2ccccn2)COc2ccccc2OC1`, the activity change, negative = inhibition result was “inactive”.

With `O=P1(Nc2ncccn2)COc2ccccc2OC1`, the activity change, negative = inhibition result is “inactive”.

Take `Cc1nn(-c2ccccc2)c2c1P(=O)(N1CCOCC1)N(C)C(c1ccccc1)=N2` (stereo not drawn): the activity change, negative = inhibition entry was “inactive”.

On to `CN(N=O)C(=N)N[N+](=O)[O-]`, for which the activity change, negative = inhibition result was “inactive”.

For the compound `COP1(=S)c2c(C)nn(CCC#N)c2N=C(c2ccc(F)cc2)N1C` (stereo not drawn), the activity change, negative = inhibition entry is “inactive”.

Consider `O=C(COc1ccccc1)OC1CN2CCC1CC2` (stereo not drawn), for which the activity change, negative = inhibition entry was “inactive”.

Turning to `O=C(O)[C@@H](O)c1ccc([As](=O)(O)O)cc1`, the activity change, negative = inhibition was inactive: 0.946% [at 11 µM].

Regarding `O=C(OC1CN2CCC1CC2)C12CC3CC(CC(C3)C1)C2` (stereo not drawn), the activity change, negative = inhibition entry is “inactive”.

For `NC(=O)Nc1cc([As](=O)(O)O)cc(I)c1O`, the activity change, negative = inhibition was inactive: 2.29% [at 11 µM].

Turning to `[N-]=[N+]=NCC(N)=O`, the activity change, negative = inhibition was inactive: -4.27% [at 11 µM].
